Patent US20200262877A1, “ION CHANNEL-BINDING PEPTIDES AND METHODS OF USE THEREOF” (priority 2017, published 2020)

The chains behind the UniProt entries cited, without tags or fusion partners. Residues count along the entry.
UniProt P30926, 22-498: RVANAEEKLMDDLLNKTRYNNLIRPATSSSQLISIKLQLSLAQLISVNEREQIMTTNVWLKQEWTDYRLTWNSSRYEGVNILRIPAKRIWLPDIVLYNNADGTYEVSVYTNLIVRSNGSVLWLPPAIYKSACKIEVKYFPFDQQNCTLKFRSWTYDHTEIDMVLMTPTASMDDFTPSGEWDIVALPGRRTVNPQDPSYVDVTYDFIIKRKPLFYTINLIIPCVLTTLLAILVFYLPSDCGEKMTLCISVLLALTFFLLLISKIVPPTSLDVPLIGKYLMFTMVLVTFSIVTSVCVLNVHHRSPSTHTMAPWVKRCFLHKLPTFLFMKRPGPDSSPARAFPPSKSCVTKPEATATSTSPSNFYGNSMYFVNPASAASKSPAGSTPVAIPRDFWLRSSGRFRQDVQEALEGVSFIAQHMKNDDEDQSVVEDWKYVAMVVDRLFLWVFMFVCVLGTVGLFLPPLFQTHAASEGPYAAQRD
UniProt P32297, 32-505: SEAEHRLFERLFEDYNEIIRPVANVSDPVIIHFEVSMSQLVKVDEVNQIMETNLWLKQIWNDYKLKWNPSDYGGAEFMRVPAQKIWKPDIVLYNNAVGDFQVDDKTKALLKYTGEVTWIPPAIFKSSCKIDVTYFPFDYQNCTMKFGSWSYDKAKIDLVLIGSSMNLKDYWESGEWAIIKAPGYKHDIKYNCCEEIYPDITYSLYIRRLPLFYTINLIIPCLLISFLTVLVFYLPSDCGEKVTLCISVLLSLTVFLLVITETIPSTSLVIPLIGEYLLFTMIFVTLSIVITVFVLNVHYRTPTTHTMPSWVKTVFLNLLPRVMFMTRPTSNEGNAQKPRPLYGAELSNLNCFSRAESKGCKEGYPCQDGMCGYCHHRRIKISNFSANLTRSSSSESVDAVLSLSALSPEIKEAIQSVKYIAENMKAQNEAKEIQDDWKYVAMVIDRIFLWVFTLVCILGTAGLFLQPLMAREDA
UniProt Q12879, 23-1464: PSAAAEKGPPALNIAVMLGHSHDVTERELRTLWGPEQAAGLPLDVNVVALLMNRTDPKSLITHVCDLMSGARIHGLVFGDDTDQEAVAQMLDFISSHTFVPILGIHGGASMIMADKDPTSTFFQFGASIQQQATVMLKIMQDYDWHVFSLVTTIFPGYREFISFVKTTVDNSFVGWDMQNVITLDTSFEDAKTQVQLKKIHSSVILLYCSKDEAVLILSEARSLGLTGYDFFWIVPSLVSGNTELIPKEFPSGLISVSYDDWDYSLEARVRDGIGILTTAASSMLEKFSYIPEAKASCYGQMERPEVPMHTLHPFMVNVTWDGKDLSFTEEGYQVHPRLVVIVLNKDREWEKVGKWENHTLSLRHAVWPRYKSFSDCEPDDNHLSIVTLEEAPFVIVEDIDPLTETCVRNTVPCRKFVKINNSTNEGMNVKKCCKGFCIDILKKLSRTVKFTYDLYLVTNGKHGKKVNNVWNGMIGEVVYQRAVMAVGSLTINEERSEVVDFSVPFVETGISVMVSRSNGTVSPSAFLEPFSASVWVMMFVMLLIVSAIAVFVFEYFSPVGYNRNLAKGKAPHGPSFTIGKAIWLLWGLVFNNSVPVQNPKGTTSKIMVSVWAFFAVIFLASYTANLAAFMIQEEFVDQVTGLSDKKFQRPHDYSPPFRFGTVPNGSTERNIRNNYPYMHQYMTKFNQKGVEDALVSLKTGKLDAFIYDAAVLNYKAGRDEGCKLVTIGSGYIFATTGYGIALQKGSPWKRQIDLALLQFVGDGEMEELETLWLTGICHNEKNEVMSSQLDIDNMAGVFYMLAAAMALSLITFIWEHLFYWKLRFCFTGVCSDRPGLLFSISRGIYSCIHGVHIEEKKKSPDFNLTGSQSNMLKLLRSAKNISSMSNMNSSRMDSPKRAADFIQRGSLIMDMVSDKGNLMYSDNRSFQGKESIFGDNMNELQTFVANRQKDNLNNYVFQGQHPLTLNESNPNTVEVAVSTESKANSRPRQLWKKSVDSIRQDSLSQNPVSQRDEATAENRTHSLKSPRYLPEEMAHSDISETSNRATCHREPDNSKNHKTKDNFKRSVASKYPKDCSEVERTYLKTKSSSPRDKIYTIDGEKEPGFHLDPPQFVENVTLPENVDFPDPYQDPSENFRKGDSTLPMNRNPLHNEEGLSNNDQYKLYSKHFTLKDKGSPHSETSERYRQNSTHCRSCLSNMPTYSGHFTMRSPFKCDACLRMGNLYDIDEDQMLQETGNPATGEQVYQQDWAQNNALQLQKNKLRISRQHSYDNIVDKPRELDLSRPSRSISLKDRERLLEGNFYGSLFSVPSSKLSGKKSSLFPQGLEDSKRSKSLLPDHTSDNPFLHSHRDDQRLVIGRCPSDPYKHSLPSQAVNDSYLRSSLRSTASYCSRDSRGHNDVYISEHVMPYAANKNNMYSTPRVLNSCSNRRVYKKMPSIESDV

Key:
α3β4 = target: T1, α3β4 (Homo sapiens, UniProt P30926+P32297); experiment: Ion channel panel (IonWorks Barracuda): α3β4; assay type: cell-based
T1 construct: host or cells: HEK293 or CHO
Method: (§1) This example describes a method for assaying ion channel activity in cells.
(§2) Peptides were screened in duplicate at final concentrations of 20 μM and 200 nM, as determined by amino acid analysis, and diluted into HEPES buffered physiological saline (HBPS). HEK293 or CHO cells from the American Type Culture Collection (ATCC) were transfected with the appropriate ion channel before use. HEK293 cells were grown in Dulbecco's Modified Eagle Medium/Nutrient Mixture F-12, and CHO cells were cultured in Ham's F-12 media. All cultures were supplemented with 10% fetal bovine serum, 100 U/ml penicillin G, 100 μg/ml streptomycin sulfate, and the appropriate selection antibiotics. Prior to use, cells were washed twice with Hank's Balanced Salt Solution, and treated with Accutase cell detachment solution (Sigma-Aldrich). Cells were then washed. Peptides and controls were incubated with cells for at least five minutes.
(§3) Percent inhibition was defined as: (1-(Ipeptide/Icontrol))×100%).
(§4) Percent values were calculated using the following formula: % activation=(IPeptide/Icontrol)×100%, where IPeptide is the current produced by co-application a peptide with agonist, and Icontrol refers to the current produced by stimulation in control. Control used for each ion channel is the reference compound matched to a particular channel, as illustrated in TABLE 10 below.

NR2A = target: T2, NR2A (Homo sapiens, UniProt Q12879); experiment: Ion channel panel (IonWorks Barracuda): NR2A; assay type: cell-based
T2 construct: host or cells: HEK293 or CHO
Method: as §1, §2, §3, §4

Question: With `CNC1(C)C2CCC(C2)C1(C)C` (centres unmarked) [Mecamylamine, reference compound] as the molecule, how does the pIC50 (α3β4) read?
Answer: 5.75

Question: How did the pIC50 (NR2A) turn out when `CC12CC3CC(C)(C1)CC(N)(C3)C2` [Memantine, reference compound] was run?
Answer: 5.42

pIC50: −log10 of the molar value.
